Assay results reported in article PMC5368172.

Molecular target: recombinant SCM, the M protein of Streptococcus canis (Streptococcus canis)
Test: SPR
Details: domain or fragment

human IgG-Fc gave a Kd of 0.123 µM.
